Assay results from paper PMC10113159, “Phase separation properties of RPA combine high-affinity ssDNA binding with dynamic condensate functions at telomeres” (Nature Structural & Molecular Biology, 2023).

Target: T1, purified trimeric human RPA complex (WT) (human, UniProt P27694 1-616; P15927 1-270; P35244 1-121)
T1 construct: RPA1 (RPA70), human, untagged, from p11d-tRPA(123); RPA2 (RPA32), human, untagged, from p11d-tRPA(123); also called tRPA; RPA WT; source: E. coli BL21, purified (HiTrap Blue, desalting, HiTrap Q); copies: + +
Assay: partitioning of a labelled protein into preformed droplets (time-lapse microscopy); 1 µM Cy3-labelled protein added to preformed droplets of unlabelled trimeric RPA (7.5 µM, 5% PEG-8000, diluted Sørensen buffer pH 7.6, 150 mM KCl, 25 µM EDTA, 1 mM DTT, room temperature); Cy3 label alone as negative control
Conditions: both partners purified

binding result: binds
B1: purified human RAD52 (natural protein, UniProt P43351 1-418, looked up)
chain: MSGTEEAILGGRDSHPAAGGGSVLCFGQCQYTAEEYQAIQKALRQRLGPEYISSRMAGGGQKVCYIEGHRVINLANEMFGYNGWAHSITQQNVDFVDLNNGKFYVGVCAFVRVQLKDGSYHEDVGYGVSEGLKSKALSLEKARKEAVTDGLKRALRSFGNALGNCILDKDYLRSLNKLPRQLPLEVDLTKAKRQDLEPSVEEARYNSCRPNMALGHPQLQQVTSPSRPSHAVIPADQDCSSRSLSSSAVESEATHQRKLRQKQLQQQFRERMEKQQVRVSTPSAEKSEAAPPAPPVTHSTPVTVSEPLLEKDFLAGVTQELIKTLEDNSEKWAVTPDAGDGVVKPSSRADPAQTSDTLALNNQMVTQNRTPHSVCHQKPQAKSGSWDLQTYSADQRTTGNWESHRKSQDMKKRKYDPS
modifications: Sulfo-Cyanine3 maleimide label (site not stated)
notes: RAD52, human, codon-optimized for E. coli, from pMALT-His-MBP-PP-hRAD52co; MBP-tag cleaved by PreScission protease; also called Cy3-labeled purified RAD52; source: E. coli, purified (amylose resin, HiTrap Heparin, NiNTA to remove uncleaved protein); not shown: His-tag, N-terminal, cleaved; MBP, N-terminal, cleaved
